Only a part is listed here, and it is no random draw. The source made the active and inactive calls. Rule as the data show it: active = potentiation above about 50%; inconclusive = mostly about 30% to 49%; inactive = weaker than that.

The chains behind the UniProt entries cited, without tags or fusion partners.
UniProt P14416, whole entry: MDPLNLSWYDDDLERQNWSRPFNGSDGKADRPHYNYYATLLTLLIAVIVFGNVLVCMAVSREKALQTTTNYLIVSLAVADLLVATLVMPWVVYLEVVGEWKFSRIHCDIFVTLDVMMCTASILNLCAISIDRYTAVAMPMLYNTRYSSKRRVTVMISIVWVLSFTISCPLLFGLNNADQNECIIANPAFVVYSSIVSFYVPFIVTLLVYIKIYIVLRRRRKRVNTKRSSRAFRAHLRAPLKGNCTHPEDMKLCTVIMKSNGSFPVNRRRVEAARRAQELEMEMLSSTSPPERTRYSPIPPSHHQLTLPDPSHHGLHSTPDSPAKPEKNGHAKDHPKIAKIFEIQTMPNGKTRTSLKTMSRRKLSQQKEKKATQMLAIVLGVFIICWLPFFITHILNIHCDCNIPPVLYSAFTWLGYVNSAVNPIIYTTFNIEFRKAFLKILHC

This test addresses D(2) dopamine receptor (Homo sapiens) (UniProt P14416). Briefly: Beta-Arrestin HTS for Positive Allosteric Modulators of the Human D2 Dopamine Receptor: Potentiators. To be noted: DiscoveRx D2 beta-arrestin cells, luminescence, 90 min; active compounds read high; 100% = 57 uM dopamine signal. From the text:
There is great interest in identifying small molecule ligands for G-protein coupled receptors (GPCRs) as nearly 50% of all FDA-approved drugs target these important receptor proteins. […] Amongst the dopamine receptors (DARs), the D2 is arguably one of the most validated drug targets in neurology and psychiatry. For instance, all receptor-based antiparkinsonian drugs primarily work via stimulating the D2 DAR, whereas all FDA-approved antipsychotic agents are antagonists of this receptor. The D2 DAR is also therapeutically targeted in other disorders such as restless legs syndrome, tardive dyskinesia, Tourette's syndrome, and hyperprolactinemia.
To this end, a miniaturized qHTS screen was developed to be screened against the Molecular Libraries Small Molecule Repository (MLSMR). This assay seeks to identify potentiators against the D2 DAR.
NIH Molecular Libraries Probe Production Network [MLPCN]
NIH Chemical Genomics Center [NCGC]
PI Name: David Sibley, National Institutes of Neurological Disorders and Stroke
DiscoveRx D2 cells were thawed from frozen stock and seeded at 2,100 cells/ 3 uL/well media (DiscoveRx Plating Reagent 2) with MultiDrop Combi dispenser (Thermo Scientific, Logan, UT) onto white tissue culture treated 1536-well Aurora plates (Brooks Automation, Chelmsford, MA) and allowed to attach overnight at 37 deg C, 5% CO2. Next, 23 nL/well of compound solutions in DMSO were added with a pintool transfer (Kalypsis, San Diego, CA). As the positive control, 1 uL/well dopamine (EC100, 57 uM final concentration) diluted in buffer (HBSS + 10 mM HEPES + SMB + 0.1 %Tween-20) was dispensed to 1 column of each plate. EC20 (Dopamine at 50 nM final concentration) was dispensed to the rest of the plate except columns 1 &2 which were used as negative control (EC=0, buffer only), 1 uL/well as well. The cells were stimulated by compounds and dopamine for 90 minutes at 37 deg C, 5% CO2, after which 1.5 uL/well of DiscoveRx detection reagent was added with BioRAPTR FRD dispenser. The detection reagent was prepared by mixing of Galacton Star Substrate, Emerald II solution and PathHunter buffer (supplied by the assay kit) together at 1:5:19 proportion accordingly just prior to dispensing. The plates were incubated at ambient temperature for 1 hour and then the luminescent signal was read on ViewLux plate reader (PerkinElmer, Waltham, MA).
In the case of `Cc1ccccc1CN(C)C(=O)COC(=O)C(O)(c1ccccc1)c1ccccc1`, the potentiation was inactive: -10.2%. `C[C@H]1OP(=O)(Oc2ccccc2)C[C@@H]2O[C@@H]21` (stereo not given in full): the potentiation was inactive: -2.65%.

Consider `C[C@@H]1C=CCP(=O)(Oc2ccccc2)O1` (stereo not given in full), for which the potentiation is inactive: -4.07%.

`CC(=O)c1ccc(N2CC2c2ccncc2)cc1` (stereo not given): the potentiation is inactive: -4.37%. The value for `N#C/C(=C\c1ccc(N(CCBr)CCBr)cc1)C(N)=O` was inactive: -1.51%; that for `COC(=O)C1(C)COP(=O)(NCc2ccccc2)OC1` (stereo not given) was inactive: -16.7%; that for `CC(=O)Nc1ccc([As](=O)(O)O)c(O)c1` was inactive: -7.06%. Take `CC(=O)Nc1ccc(Oc2c([N+](=O)[O-])cc([N+](=O)[O-])cc2[N+](=O)[O-])cc1`: the potentiation is inactive: -19.8%. As to `O=P(Nc1nccs1)(c1ccccc1)c1ccccc1`, the potentiation was inactive: 13.2%. Under `CC(C)C(=O)NC(Sc1ccccc1)C(Cl)(Cl)Cl` (stereo not given) stands inactive: 0.149%; under `CP(=O)(Nc1ccc(SC(F)(F)F)cc1)Oc1ccc(F)cc1` (stereo not given), inactive: -8.13%.

As for `c1nnnn1CCn1cnnn1`, the potentiation is inactive: 4.65%. Take `CCOP(C)(=S)SCC(=O)NC(C)(CC)C(=O)O` (stereo not given): the potentiation was inactive: 2.01%. On to `CP(=O)(Nc1ccc2c(c1)OCCO2)Oc1ccccc1` (stereo not given), for which the potentiation is inactive: 12.1%. The value for `Cc1ccccc1NP(C)(=O)Nc1ccccc1C` was inactive: -4.53%; that for `CN(C)C1(CNC(=O)c2ccc(Cl)c(S(N)(=O)=O)c2)CCCCC1` was inactive: -6.16%.

On to `O=P(Nc1ccccn1)(c1ccc(Br)cc1)c1ccc(Br)cc1`, for which the potentiation is inactive: -5.36%. On to `COc1ccc(OP(C)(=O)Nc2cccc(Br)c2)cc1` (stereo not given), for which the potentiation is inactive: -3.74%. Consider `COc1ccc(N)c([N+](=O)[O-])c1[N+](=O)[O-]`, for which the potentiation is inactive: -10.2%. Under `COc1ccc(NP(C)(=O)Oc2ccccc2OC)cc1` (stereo not given) stands inactive: 2.32%; under `O=P(Nc1nc2ccccc2s1)(c1ccccc1)c1ccccc1`, inactive: 0.305%; under `CN(C)CCOC(=O)C(O)(c1ccccc1)C1CCCCC1` (stereo not given), inactive: -14.7%. With `C[C@H]1OP(=O)(Oc2ccccc2)[C@H](O)[C@H](O)[C@H]1N=[N+]=[N-]` (stereo not given in full), the potentiation was inactive: -4.1%. On to `O=[As](O)(c1ccccc1)c1ccc(O)cc1`, for which the potentiation was inactive: -2.21%. With `Cc1cc(-c2cccc3ccccc23)c(C)cn1.O=[N+]([O-])c1cc([N+](=O)[O-])c(O)c([N+](=O)[O-])c1`, the potentiation is inactive: -18.5%.

Take `O=[N+]([O-])c1ncn(CCn2cnc([N+](=O)[O-])n2)n1`: the potentiation is inactive: 3.45%. The value for `CC(=O)NC(SC(=S)N(C)C)C(Cl)(Cl)Cl` (stereo not given) was inactive: -11.2%; that for `O=[N+]([O-])c1ccc(OP2(=O)COCCO2)cc1` (stereo not given) was inactive: -3.49%; that for `O=[N+]([O-])c1ccc(O)c(/C=N/Nc2ccc([N+](=O)[O-])cc2[N+](=O)[O-])c1` was inactive: 7.6%. As for `O=C(OC1CN2CCC1CC2)c1cccc(Cl)c1` (stereo not given), the potentiation is inactive: -15.4%.

As to `Cc1c(C(c2ccc3c(c2)OCO3)c2c(C)n(C)n(-c3ccccc3)c2=O)c(=O)n(-c2ccccc2)n1C.O=[N+]([O-])c1cc([N+](=O)[O-])c(O)c([N+](=O)[O-])c1`, the potentiation was inactive: -2.91%. As to `C(Cc1nn[nH]n1)Cc1nn[nH]n1`, the potentiation is inactive: -13%.

For `Nc1ccc([As](=O)(O)c2ccc([N+](=O)[O-])cc2)cc1`, the potentiation is inactive: -0.672%.

`O=P1(N(CCCl)CCCl)OCCCS1` (stereo not given): the potentiation was inactive: -4.07%. As to `Nc1ccc2c(ccc3cccnc32)n1.O=[N+]([O-])c1cc([N+](=O)[O-])c(O)c([N+](=O)[O-])c1`, the potentiation was inactive: -15%. Regarding `CP(=O)(OC12CC3CC(CC(C3)C1)C2)OC12CC3CC(CC(C3)C1)C2`, the potentiation is inactive: -4.02%.

In the case of `CCOC(=O)c1ccc(NP(C)(=O)Oc2ccc(Cl)cc2)cc1` (stereo not given), the potentiation is inactive: -4.81%. For `O=C(Nc1cc([As](=O)(O)O)ccc1O)c1ccccc1`, the potentiation was inactive: 8.79%. In the case of `O=[N+]([O-])c1ncn(CCn2ncnc2[N+](=O)[O-])n1`, the potentiation is inactive: 1.51%.

`CC(C)(C)C(=O)NC(Sc1ccncn1)C(Cl)(Cl)Cl` (stereo not given): the potentiation was inactive: -5.75%. With `O=C(O)CNc1ccc([As](=O)(O)O)cc1`, the potentiation was inactive: -19.6%.

For the compound `COC(=O)C1(C)COP(=O)(Nc2ccccc2)OC1` (stereo not given), the potentiation is inactive: -9.6%. On to `O=[N+]([O-])c1cccc(NC2=NCC(CBr)S2)c1` (stereo not given), for which the potentiation is inactive: -18.2%. Under `CCN(CC)CC(O)COC(=O)C(O)(c1ccccc1)C1CCCCC1` (stereo not given) stands inactive: -14.2%; under `COc1ccc(OP(C)(=O)Nc2ccc(Br)cc2)cc1` (stereo not given), inactive: -21.1%.

As to `COc1ccc(C2=NCC(CBr)S2)cc1` (stereo not given), the potentiation was inactive: -11%. For the compound `CP(=O)(Oc1ccccc1)N1CCOC1=O` (stereo not given), the potentiation was inactive: 1.45%. The value for `Cc1ccc(NP(=O)(Oc2ccccc2)Oc2ccccc2)nc1` was inactive: -2.01%. Turning to `CC(=O)N1C2C3N(C(C)=O)C1C1N(C(C)=O)C(C(N1C(C)=O)N3C(C)=O)N2C(C)=O`, the potentiation is inactive: -21.9%.

Regarding `O=[N+]([O-])c1cccc2n[nH]nc12`, the potentiation was inactive: -7.24%. For the compound `COc1ccccc1OP(C)(=O)Nc1c(C)n(C)n(-c2ccccc2)c1=O` (stereo not given), the potentiation was inactive: 0.424%. `O=C(OCCCN1CCCC1)C(O)(c1ccccc1)C1CCCCC1` (stereo not given): the potentiation was inactive: -33.1%. Take `CCN(/C(=N/P(=O)(N1CCOCC1)N1CCOCC1)N1CCOCC1)c1ccc(OC)cc1`: the potentiation is inactive: -15.9%. As to `CP(=O)(Nc1ccc(Cl)cc1)Oc1ccc(F)cc1` (stereo not given), the potentiation was inactive: -4.41%. On to `COc1ccccc1OP(C)(=O)Nc1ccccc1Br` (stereo not given), for which the potentiation is inactive: -7.83%. For `Nc1ccc([As](=O)(O)c2ccc(N)cc2)cc1`, the potentiation was inactive: -4.58%. As to `CC(C)(C)c1ccc(OP(C)(=O)O)cc1`, the potentiation is inactive: -6.89%.

`CC1CCN(C(=O)Oc2c(Cl)cc(Cl)c3cccnc23)CC1`: the potentiation was inactive: -4.13%. In the case of `c1cc(-c2nn[nH]n2)ccc1-c1nn[nH]n1`, the potentiation was inactive: -12.8%.

For the compound `CC(C)c1nc(Nc2ccccc2)n(P(=O)(N(C)C)N(C)C)n1`, the potentiation is inactive: -6.42%. The value for `CC(C)=N/N=C(\N)N[N+](=O)[O-]` was inactive: -4.16%; that for `CN(C)C(=O)c1c([N+](=O)[O-])cc([N+](=O)[O-])cc1[N+](=O)[O-]` was inactive: -27.1%; that for `CN(C)C(=O)OCCc1n(C)cc[n+]1C` was inactive: -9.02%. `CN(C(=O)Cc1ccc(Cl)c(Cl)c1)[C@H]1CCCC[C@H]1N1CCCC1`: the potentiation was inactive: -20.9%. For `COc1ccccc1OP(C)(=O)Nc1ccc(Br)cc1` (stereo not given), the potentiation was inactive: -3.01%. Take `Cc1ccc(N/C(=N/P(=O)(N2CCOCC2)N2CCOCC2)N2CCOCC2)cc1`: the potentiation was inactive: -4.38%. Take `NC(=O)c1cc([N+](=O)[O-])cc([N+](=O)[O-])c1N`: the potentiation is inactive: -2.3%.

For the compound `CN1CCCC(OC(=O)C(c2ccccc2)c2ccccc2)C1` (stereo not given), the potentiation was inactive: -32.2%. Take `CN(C)CCOC(=O)C(O)(c1ccccc1)C1CCCC1` (stereo not given): the potentiation is inactive: -25.2%. As to `Clc1ccc(Cl)c(NC2=NCC(CBr)S2)c1` (stereo not given), the potentiation is inactive: -5.39%. With `COc1ccccc1OP(=O)(Nc1ccc(C)cn1)Oc1ccccc1OC`, the potentiation was inactive: 0.405%. Under `COc1ccc(OP(C)(=O)Nc2ccccn2)cc1` (stereo not given) stands inactive: 0.469%; under `Cc1ccc(OP(=O)(Nc2nccs2)Oc2ccc(C)cc2)cc1`, inactive: -10.5%. With `Oc1ccccc1CNc1ccccn1`, the potentiation is inactive: -2.01%. In the case of `O=C(NC(Sc1ccncn1)C(Cl)(Cl)Cl)c1ccccc1` (stereo not given), the potentiation was inactive: 12.4%. Turning to `Nc1cc(N)c2nonc2c1[N+](=O)[O-]`, the potentiation was inactive: 14.1%.

As to `Cc1c(NP(C)(=O)Oc2ccc(C(C)C)cc2)c(=O)n(-c2ccccc2)n1C` (stereo not given), the potentiation is inactive: 0.342%. Take `O=[N+]([O-])c1cc([N+](=O)[O-])c(Nc2ccccn2)c([N+](=O)[O-])c1`: the potentiation was inactive: 13.9%. The value for `CC(C)CC(=O)NC(Sc1ccc(Cl)cc1)C(Cl)(Cl)Cl` (stereo not given) was inactive: 5.3%.

For `O=[N+]([O-])C1C(O)C(O)C([N+](=O)[O-])C(O)C1O` (stereo not given), the potentiation was inactive: -3.48%.

For the compound `CCc1ccc(OP(C)(=O)O)cc1`, the potentiation is inactive: -18%. Consider `CP(=O)(Nc1ccccn1)Oc1ccccc1` (stereo not given), for which the potentiation was inactive: -12.5%. The value for `COc1ccccc1OP(C)(=O)Nc1ccc(C)cc1C` (stereo not given) was inactive: -4.6%.

Turning to `O=P(Nc1nc2ccc(Cl)cc2s1)(c1ccccc1)c1ccccc1`, the potentiation was inactive: -4.48%. As for `CN(C)P(=O)(N(C)C)n1c(Nc2ccccc2)nnc1-c1ccccc1`, the potentiation is inactive: -10.6%. Under `Cc1cc(C)cc(OP(C)(=O)Nc2cccc(C(F)(F)F)c2)c1` (stereo not given) stands inactive: -2.32%; under `CC(=O)Nc1ccc([As](=O)(O)O)cc1`, inactive: -6.86%.

Consider `O=C(O)c1ccccc1[As](=O)(O)O`, for which the potentiation is inactive: -8.44%. With `CCCC1OP(N)(=O)OCC1CC` (stereo not given), the potentiation was inactive: -6.49%. Under `COc1ccc(OP(C)(=O)Nc2ccccc2Br)cc1` (stereo not given) stands inactive: -9.95%. The value for `Cc1cc(SC(NC(=O)c2ccc(F)cc2)C(Cl)(Cl)Cl)ncn1` (stereo not given) was inactive: -13%. With `CCOP(=O)(Nc1ccccc1)OCC`, the potentiation was inactive: -2.85%. `COc1ccccc1OP(C)(=O)Nc1ccc(C)c(C)c1` (stereo not given): the potentiation was inactive: -7.49%. The value for `CN(C(=O)Cc1ccc(Cl)c(Cl)c1)[C@H]1CCCC[C@@H]1N1CCCC1` was inactive: -15.5%; that for `Cc1ccc(NP(=O)(Oc2ccccc2F)Oc2ccccc2F)nc1` was inactive: -10.1%. Consider `Nc1cccc2ccc([As](=O)(O)O)cc12`, for which the potentiation is inactive: 20.6%. Take `CCCCCCCCCCCCCCCC1C[N+](C)(C)CCOP(C)(=O)O1` (stereo not given): the potentiation is inactive: -23.6%. Turning to `CP(=O)(Nc1ccc(Cl)cc1Cl)Oc1ccccc1` (stereo not given), the potentiation is inactive: 15.3%.

Take `CP(=O)(OCCOc1ccccc1)OCCOc1ccccc1`: the potentiation is inactive: -6.39%.

Turning to `CCN(N=Nc1nonc1N)c1nonc1N`, the potentiation is inactive: -3.54%.

The record behind these values is PubChem BioAssay AID624464 (National Center for Advancing Translational Sciences (NCATS), 2012).
